Experimental data as given in patent publication US20200261490A1.

Target: recombinant human PAPP-A (pregnancy-associated plasma protein-A, pappalysin-1) (human) (UniProt Q13219)
Assay: kinetic analysis of inhibition of PAPP-A cleavage of 125I-IGFBP-4; Morrison Ki model

Q: “recombinant human stanniocalcin 1, C-terminally myc-his-tagged (from UniProt P52823 34-247)” was tested. Which Ki did it give?
A: The Ki was 0.068 nM.
